{"sequences": {"note": "By UniProt entry, the sequences of proteins in these tests, tags left out.", "UniProt P00533, whole entry": "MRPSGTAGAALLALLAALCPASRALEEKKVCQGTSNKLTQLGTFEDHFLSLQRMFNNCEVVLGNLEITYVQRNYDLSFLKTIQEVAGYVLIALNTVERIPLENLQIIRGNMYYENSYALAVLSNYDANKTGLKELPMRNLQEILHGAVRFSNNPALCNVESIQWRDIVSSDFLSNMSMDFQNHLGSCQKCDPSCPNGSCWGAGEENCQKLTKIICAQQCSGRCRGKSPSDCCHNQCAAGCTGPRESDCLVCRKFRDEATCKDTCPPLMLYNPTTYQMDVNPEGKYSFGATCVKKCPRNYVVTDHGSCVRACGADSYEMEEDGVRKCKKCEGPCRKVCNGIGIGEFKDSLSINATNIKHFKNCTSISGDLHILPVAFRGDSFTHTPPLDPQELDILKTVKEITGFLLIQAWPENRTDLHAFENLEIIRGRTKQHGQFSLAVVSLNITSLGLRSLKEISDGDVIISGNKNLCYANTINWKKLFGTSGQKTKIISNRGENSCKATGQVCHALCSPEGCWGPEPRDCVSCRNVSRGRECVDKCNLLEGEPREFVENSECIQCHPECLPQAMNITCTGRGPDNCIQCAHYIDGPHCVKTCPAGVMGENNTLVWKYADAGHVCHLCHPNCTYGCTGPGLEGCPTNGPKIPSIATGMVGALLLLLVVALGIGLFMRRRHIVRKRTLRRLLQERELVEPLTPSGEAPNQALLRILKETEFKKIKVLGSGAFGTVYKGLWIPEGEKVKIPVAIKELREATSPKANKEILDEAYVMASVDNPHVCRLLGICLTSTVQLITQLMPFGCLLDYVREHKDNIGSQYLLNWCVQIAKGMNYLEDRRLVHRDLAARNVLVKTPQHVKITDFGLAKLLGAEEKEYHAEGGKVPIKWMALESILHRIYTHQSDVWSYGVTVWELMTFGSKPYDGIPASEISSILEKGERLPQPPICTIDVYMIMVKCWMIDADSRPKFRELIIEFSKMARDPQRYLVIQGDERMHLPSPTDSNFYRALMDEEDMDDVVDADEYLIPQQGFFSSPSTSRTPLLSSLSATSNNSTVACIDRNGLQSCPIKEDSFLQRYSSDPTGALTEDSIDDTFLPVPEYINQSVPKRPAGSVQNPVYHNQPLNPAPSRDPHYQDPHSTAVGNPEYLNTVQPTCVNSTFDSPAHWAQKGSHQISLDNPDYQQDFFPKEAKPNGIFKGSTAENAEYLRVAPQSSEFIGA"}, "source": "ChEMBL document CHEMBL1149340", "about": "“Optimization and SAR for dual ErbB-1/ErbB-2 tyrosine kinase inhibition in the 6-furanylquinazoline series” (Bioorg Med Chem Lett, 2006)", "key": {"[1]": {"molecular_target": "Epidermal growth factor receptor (Homo sapiens, UniProt P00533)"}, "HN5": {"test_system": "HN5", "experiment": "cells", "settings": "Homo sapiens, HN5, 72 h"}}}
{"smiles": "CS(=O)(=O)CCNCc1ccc(-c2ccc3ncnc(Nc4ccc(OCc5ccccc5)c(Br)c4)c3c2)o1", "values": [{"measurement": "IC50", "setting": "[1]", "result": 25, "unit": "nM"}, {"measurement": "IC50", "setting": "HN5", "result": 260, "unit": "nM"}]}
